Values quoted from earlier work in patent US20040063658A1, “Nucleoside derivatives for treating hepatitis C virus infection” (priority 2002, published 2004).

Settings: in vivo

In the case of NC(=O)c1ncn([C@@H]2O[C@H](CO)[C@@H](O)[C@H]2O)n1 [Ribavirin, 1-β-D-ribofuranosyl-1H-1,2,-4-triazole-3-carboxamide], the teratogenicity / embryotoxicity is given as “teratogenic and embryotoxic”.
